Source: ChEMBL document CHEMBL5543159, “Discovery of an Ortho-Substituted N-Cyclopropylmethyl-7α-phenyl-6,14-endoethano-tetrahydronorthebaine Derivative as a Selective and Potent Kappa Opioid Receptor Agonist with Subsided Sedative Effect” (2024)
pEC50, pKi: −log10 of the molar value.

What was measured:
[1] = molecular target: T1, Mu-type opioid receptor (Rattus norvegicus, UniProt P33535); test: Displacement of [3H]-DAMGO from rat MOR receptor expressed in CHO cell membrane assessed as inhibition constant incubated for 1 hrs by liquid scintillation counting method
[2] = molecular target: T2, Delta-type opioid receptor (Rattus norvegicus, UniProt P33533); test: Displacement of [3H]DPDPE from rat DOR expressed in CHO cells membrane assessed as inhibition constant incubated for 1 hrs by liquid scintillation counting method
[3] = molecular target: T3, Kappa-type opioid receptor (Homo sapiens, UniProt P41145); test: Displacement of [3H]U69593 from human KOR expressed in CHO cells membrane assessed as inhibition constant incubated for 1 hrs by liquid scintillation counting method
[4] = molecular target: T1, Mu-type opioid receptor; test: Agonist activity at rat MOR expressed in CHO cell membrane assessed as stimulation of [35S]-GTPgammaS binding incubated for 1 hr by liquid scintillation counting assay
[5] = molecular target: T2, Delta-type opioid receptor; test: Agonist activity at rat DOR expressed in CHO cell membrane assessed as stimulation of [35S]-GTPgammaS binding incubated for 1 hr by liquid scintillation counting assay
[6] = molecular target: T3, Kappa-type opioid receptor; test: Agonist activity at human KOR expressed in CHO cell membrane assessed as stimulation of [35S]-GTPgammaS binding incubated for 1 hr by liquid scintillation counting assay
[7] = test system: Mus musculus; test: Antinociceptive activity in ip dosed female Kunming mouse assessed as reduction in nociceptive response measured after 8 hrs by hot plate test
[8] = test system: Mus musculus; test: Antinociceptive activity in ip dosed male Kunming mouse assessed as reduction in nociceptive response measured after 8 hrs by abdominal constriction test; details: dose 0.25-1 mg/kg
[9] = test system: Mus musculus; test: Antinociceptive activity in ip dosed female ICR mouse assessed as reduction in nociceptive response measured after 8 hrs by hot plate test
[10] = test system: Mus musculus; test: Antinociceptive activity in ip dosed male ICR mouse assessed as reduction in nociceptive response measured after 8 hrs by abdominal constriction test; details: dose 0.25-1 mg/kg

SMILES | pKi [1] | pKi [2] | pKi [3] | further results
COc1ccc2c3c1O[C@H]1[C@@]4(OC)CC[C@@]5(C[C@@H]4c4ccccc4NC(=O)Cc4ccc(C)c(C)c4)[C@@H](C2)N(CC2CC2)CC[C@]315 | < 5.30 | 5.61 | < 5.30 | –
COc1ccc2c3c1O[C@H]1[C@@]4(OC)CC[C@@]5(C[C@@H]4c4ccccc4N)[C@@H](C2)N(CC2CC2)CC[C@]315 | 6.69 | 5.42 | 7.26 | –
COc1ccc2c3c1O[C@H]1[C@@]4(OC)CC[C@@]5(C[C@@H]4c4ccccc4NC(=O)c4ccccc4)[C@@H](C2)N(CC2CC2)CC[C@]315 | 6.06 | < 5.30 | 7.72 | pEC50 [4]: 5.97; pEC50 [5]: < 5.00; pEC50 [6]: 7.74
COc1ccc2c3c1O[C@H]1[C@@]4(OC)CC[C@@]5(C[C@@H]4c4ccccc4NCc4ccccc4)[C@@H](C2)N(CC2CC2)CC[C@]315 [listing 1 of 2 here] | 5.98 | 5.38 | 8.41 | pEC50 [4]: 6.15; pEC50 [5]: 5.78; pEC50 [6]: 8.47
COc1ccc2c3c1O[C@H]1[C@@]4(OC)CC[C@@]5(C[C@@H]4c4ccccc4NC(=O)c4ccc6[nH]ccc6c4)[C@@H](C2)N(CC2CC2)CC[C@]315 | < 5.00 | < 5.00 | 5.69 | –
COc1ccc2c3c1O[C@H]1[C@@]4(OC)CC[C@@]5(C[C@@H]4c4ccc(NC(=O)c6ccccc6)cc4)[C@@H](C2)N(CC2CC2)CC[C@]315 | – | – | – | ED50 [7]: 0.2 mg/kg; ED50 [8]: 0.1 mg/kg
COc1ccc2c3c1O[C@H]1[C@@]4(OC)CC[C@@]5(C[C@@H]4c4ccccc4NCc4ccccc4)[C@@H](C2)N(CC2CC2)CC[C@]315 [listing 2 of 2 here] | – | – | – | ED50 [9]: 0.3 mg/kg; ED50 [10]: 0.2 mg/kg; ED50 [7]: 0.2 mg/kg; ED50 [8]: 0.6 mg/kg
COc1ccc2c3c1O[C@H]1[C@@]4(OC)CC[C@@]5(C[C@@H]4c4ccccc4NC(=O)c4ccc(Cl)c(Cl)c4)[C@@H](C2)N(CC2CC2)CC[C@]315 | 6.17 | 5.82 | 5.99 | –
COc1ccc2cc([C@H](C)C(=O)Nc3ccccc3[C@H]3C[C@@]45CC[C@]3(OC)[C@@H]3Oc6c(OC)ccc7c6[C@@]34CCN(CC3CC3)[C@@H]5C7)ccc2c1 | < 5.00 | < 5.00 | < 5.00 | –
COc1ccc2c3c1O[C@H]1[C@@]4(OC)CC[C@@]5(C[C@@H]4c4ccccc4N(C)Cc4ccc(C(F)(F)F)cc4)[C@@H](C2)N(CC2CC2)CC[C@]315 | 6.22 | 5.43 | 6.72 | –
COc1ccc2c3c1O[C@H]1[C@@]4(OC)CC[C@@]5(C[C@@H]4c4ccccc4NC(=O)Cc4ccccc4)[C@@H](C2)N(CC2CC2)CC[C@]315 | 6.78 | 6.49 | 7.15 | EC50 [4]: Not Active; pEC50 [5]: 6.35; pEC50 [6]: 6.54
COc1ccc(CNc2ccccc2[C@H]2C[C@@]34CC[C@]2(OC)[C@@H]2Oc5c(OC)ccc6c5[C@@]23CCN(CC2CC2)[C@@H]4C6)cc1 | 6.19 | < 5.30 | 6.90 | –
COc1ccc2c3c1O[C@H]1[C@@]4(OC)CC[C@@]5(C[C@@H]4c4ccccc4NC(=O)C(C)(C)C)[C@@H](C2)N(CC2CC2)CC[C@]315 | 6.11 | 6.26 | < 5.30 | –
COc1ccc2c3c1O[C@H]1[C@@]4(OC)CC[C@@]5(C[C@@H]4c4ccccc4NC(=O)c4ccc(C)c(C)c4)[C@@H](C2)N(CC2CC2)CC[C@]315 | 6.10 | < 5.30 | 7.27 | –
COc1ccc2c3c1O[C@H]1[C@@]4(OC)CC[C@@]5(C[C@@H]4c4ccccc4NCC4CC4)[C@@H](C2)N(CC2CC2)CC[C@]315 | 5.34 | < 5.30 | 6.66 | –
COc1ccc2c3c1O[C@H]1[C@@]4(OC)CC[C@@]5(C[C@@H]4c4ccccc4NCC4CCN(C(=O)OC(C)(C)C)CC4)[C@@H](C2)N(CC2CC2)CC[C@]315 | < 5.30 | < 5.30 | 5.75 | –
COc1ccc2c3c1O[C@H]1[C@@]4(OC)CC[C@@]5(C[C@@H]4c4ccccc4NCC4CCCC4)[C@@H](C2)N(CC2CC2)CC[C@]315 | < 5.30 | < 5.30 | 6.88 | –
COc1ccc2c3c1O[C@H]1[C@@]4(OC)CC[C@@]5(C[C@@H]4c4ccccc4NC(=O)OCc4ccccc4)[C@@H](C2)N(CC2CC2)CC[C@]315 | 6.27 | 5.39 | 6.74 | –
COc1ccc2c3c1O[C@H]1[C@@]4(OC)CC[C@@]5(C[C@@H]4c4ccccc4NC(=O)c4ccccc4O)[C@@H](C2)N(CC2CC2)CC[C@]315 | 6.17 | 5.93 | 6.65 | –
COc1ccc2c3c1O[C@H]1[C@@]4(OC)CC[C@@]5(C[C@@H]4c4ccccc4NC(=O)C4CC4)[C@@H](C2)N(CC2CC2)CC[C@]315 | < 5.30 | < 5.30 | < 5.30 | –
COc1ccc(CNc2cccc([C@H]3C[C@@]45CC[C@]3(OC)[C@@H]3Oc6c(OC)ccc7c6[C@@]34CCN(CC3CC3)[C@@H]5C7)c2)cc1 | – | – | – | ED50 [7]: 0.1 mg/kg; ED50 [8]: 0.2 mg/kg
